Laboratory results from paper PMC7367873, “Dissecting the sequence determinants for dephosphorylation by the catalytic subunits of phosphatases PP1 and PP2A” (Nature Communications, 2020).
Blank lines part the entries; values can stand above or below the substance they belong to.

What was measured:
[1] = test system: GFP-14-3-3β and its binding proteins; experiment: GFP-14-3-3β co-IP with LC-MS/MS label-free quantification, untreated versus PP1c-treated; parameters: species or system human
Description: (§1) HeLa Kyoto cells expressing transiently transfected pEGFP(C1)-14-3-3β or pEGFP(C1) control plasmid, were incubated with 20 nM Calyculin A (# 9902 S, Cell Signaling Technology) for 12 min. Cells were washed twice on ice with cold PBS and after addition of 500 µL lysis buffer (100 mM NaCl, 10 mM Tris, 0.1% IGEPAL, 1 mM EDTA, 1 mM EGTA, 20 nM Calyculin A, 1x cOmplete Mini protease inhibitor cocktail (Sigma), 1 mM DTT, 1 mM MnCl2) cells were scraped from plates, lysed by 10 pushes through an injection needle (21 G, BD) and the insoluble fraction was pelleted by centrifugation (10 min, 10^4 rcf, 4 °C). Supernatants were then subjected to incubation with 1 µM recombinant phosphatase or buffer for 1 h at 30 °C. Next, we subjected samples to immunoprecipitation using α-GFP nanobodies covalently coupled to agarose beads (2 h, 4 °C, obtained from the EMBL PEPcore Core Facility). Beads were then washed three times with lysis buffer and samples were eluted in 1x LDS sample buffer (Thermo Fisher Scientific) by heating to 70 °C for 10 min.
(§2) The samples were then reduced with 25 mM dithiothreitol (10 min at 70 °C) and alkylated with 55 mM chloroacetamide (room temperature, 30 min, in the dark). Proteins were run on a precast 4–12% NuPAGE gel (ThermoFisher Scientific) for about 1 cm to concentrate the sample prior to in-gel tryptic digestion, which was performed according to the standard procedures. The peptides obtained were dried to completeness and resuspended in 12 µL of buffer A (0.1% FA), and 5 µL of sample were injected per MS measurement. The experiment was carried out in three independent replicates.
(§3) The samples were analyzed by LC-MS/MS on a Dionex Ultimate 3000 nano-HPLC coupled online to a Fusion Lumos Tribrid mass spectrometer (Thermo Fisher Scientific). Peptides were delivered to a trap column (75 µm × 2 cm, packed in-house with 5 µm C18 resin; Reprosil PUR AQ, Dr. Maisch) and washed using 0.1% FA at a flow rate of 5 µL/min for 10 min. Subsequently, peptides were transferred to an analytical column (75 µm × 45 cm, packed in-house with 3 µm C18 resin; Reprosil Gold) applying a flow rate of 300 nL/min and separated using a 60 min linear gradient from 4% to 32% LC solvent B (0.1% FA, 5% DMSO in ACN) in LC solvent A (0.1% FA in 5% DMSO). The eluate from the analytical column was sprayed via a stainless steel emitter (Thermo Fisher Scientific) at a source voltage of 2.1 kV into the mass spectrometer. The transfer capillary was heated to 275 °C. The Fusion Lumos was operated in positive ionization mode and data-dependent acquisition (DDA), automatically switching between MS1 and MS2 spectrum acquisition. Full scan MS1 spectra were recorded in the Orbitrap from 360 to 1300 m/z at a resolution of 60k (automatic gain control (AGC) target value of 4e5 charges, maximum injection time (maxIT) of 50 ms). Up to 20 peptide precursors were isolated (isolation window, 1.7 m/z; maximum injection time, 25 ms; and AGC value, 1e5), fragmented by high-energy collision-induced dissociation (HCD) using 30% normalized collision energy (NCE), and analyzed at a resolution of 15k in the Orbitrap. Precursor ions that were singly charged, unassigned, or with charge states >6+ were excluded. The dynamic exclusion duration of fragmented precursor ions was 20 s.
(§4) Peptide and protein identification and LFQ were performed using MaxQuant software (version 1.6.1.0)[64] by searching the data against all canonical protein sequences as annotated in the Swissprot reference database (human proteins only, 20193 entries, downloaded 22 March 2016, internally annotated with PFAM domains) using the embedded search engine Andromeda[65]. The MaxQuant search was performed using two variable modifications; oxidation of methionine and N-terminal protein acetylation. Carbamidomethylation on cysteines was specified as a fixed modification. Trypsin (Trypsin/P) was specified as the proteolytic enzyme with up to two allowed missed cleavage sites. […]

[2] = test system: GFP-14-3-3β; experiment: GFP-14-3-3β co-IP with LC-MS/MS, untreated GFP-14-3-3β versus GFP control (14-3-3 interactome); type: binding, human
Description: as §1, §2, §3, §4

[3] = PP1 vs untreated, label-free quantification
[4] = untreated vs GFP, label-free quantification

Difference (log2), PP1 vs untreated ([1]; GFP-14-3-3β co-IP LC-MS/MS, PP1 vs untreated, student's t-test, label-free quantification, 3 replicates each): -0.4882 log2
Substance: CDK1
Difference (log2), untreated vs GFP ([2]; GFP-14-3-3β co-IP LC-MS/MS, untreated vs GFP, student's t-test, label-free quantification, 3 replicates each): 1.267 log2

Difference ([1]; GFP-14-3-3β co-IP, PP1vsUntrted, Perseus raw output, LFQ intensity difference): 1.11
Difference (log2), PP1 vs untreated [1, 3]: 1.11 log2
Substance: IGF2BP3
Difference ([2]; UntrtedvsGFP, Perseus raw output, LFQ intensity difference): -0.03145
Difference (log2), untreated vs GFP [2, 4]: -0.03145 log2

Difference (log2), PP1 vs untreated ([1]; PP1 vs untreated, LFQ intensities, replicates 1-3): -1.993 log2
Substance: PRRC2B
Difference (log2), untreated vs GFP ([2]; untreated vs GFP, LFQ intensities, replicates 1-3): 0.5414 log2

Difference (log2), PP1 vs untreated ([1]; pairwise comparison PP1 vs untreated, student's t-test, 3 replicates each, LC-MS/MS label-free quantification): -2.805 log2
Substance: RAF1
Difference (log2), untreated vs GFP ([2]; pairwise comparison untreated GFP-14-3-3β vs GFP, student's t-test, 3 replicates each, LC-MS/MS label-free quantification): 3.818 log2

Second part, the substance before the results:

Substance: IGF2BP1
Difference (log2), PP1 vs untreated [1, 3]: 1.142 log2
Difference (log2), untreated vs GFP [2, 4]: 0.572 log2

Substance: PRRC2C
Difference (log2), PP1 vs untreated [1, 3]: 0.864 log2
Difference (log2), untreated vs GFP [2, 4]: 0.6801 log2

Substance: RPA1
Difference (log2), PP1 vs untreated ([1]; log2 difference, pairwise comparison PP1 vs untreated, label-free quantification, 3 replicates each): 1.304
Difference (log2), untreated vs GFP ([2]; log2 difference, pairwise comparison untreated vs GFP, label-free quantification, 3 replicates each): -2.268
